By UniProt entry, the sequences of proteins in these tests, tags left out. Where a name states a change or a piece, a line headed by the entry shows the natural chain unless it says otherwise.
UniProt P22303: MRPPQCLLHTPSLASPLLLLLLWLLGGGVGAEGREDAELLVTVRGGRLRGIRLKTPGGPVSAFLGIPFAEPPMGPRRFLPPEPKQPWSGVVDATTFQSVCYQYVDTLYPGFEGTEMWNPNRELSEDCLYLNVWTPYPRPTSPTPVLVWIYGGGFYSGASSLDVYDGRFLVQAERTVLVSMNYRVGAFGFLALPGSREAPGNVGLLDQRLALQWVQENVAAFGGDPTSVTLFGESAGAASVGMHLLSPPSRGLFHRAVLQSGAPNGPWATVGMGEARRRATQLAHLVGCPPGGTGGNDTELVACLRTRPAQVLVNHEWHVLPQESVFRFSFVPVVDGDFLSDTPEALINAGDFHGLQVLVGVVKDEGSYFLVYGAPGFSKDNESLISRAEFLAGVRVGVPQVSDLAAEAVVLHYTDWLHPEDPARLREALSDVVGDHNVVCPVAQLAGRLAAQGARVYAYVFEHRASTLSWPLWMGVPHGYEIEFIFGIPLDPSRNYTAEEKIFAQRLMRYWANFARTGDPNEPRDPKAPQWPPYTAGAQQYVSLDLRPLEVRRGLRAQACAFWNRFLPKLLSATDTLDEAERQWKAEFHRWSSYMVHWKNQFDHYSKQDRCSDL
UniProt P06276, whole entry: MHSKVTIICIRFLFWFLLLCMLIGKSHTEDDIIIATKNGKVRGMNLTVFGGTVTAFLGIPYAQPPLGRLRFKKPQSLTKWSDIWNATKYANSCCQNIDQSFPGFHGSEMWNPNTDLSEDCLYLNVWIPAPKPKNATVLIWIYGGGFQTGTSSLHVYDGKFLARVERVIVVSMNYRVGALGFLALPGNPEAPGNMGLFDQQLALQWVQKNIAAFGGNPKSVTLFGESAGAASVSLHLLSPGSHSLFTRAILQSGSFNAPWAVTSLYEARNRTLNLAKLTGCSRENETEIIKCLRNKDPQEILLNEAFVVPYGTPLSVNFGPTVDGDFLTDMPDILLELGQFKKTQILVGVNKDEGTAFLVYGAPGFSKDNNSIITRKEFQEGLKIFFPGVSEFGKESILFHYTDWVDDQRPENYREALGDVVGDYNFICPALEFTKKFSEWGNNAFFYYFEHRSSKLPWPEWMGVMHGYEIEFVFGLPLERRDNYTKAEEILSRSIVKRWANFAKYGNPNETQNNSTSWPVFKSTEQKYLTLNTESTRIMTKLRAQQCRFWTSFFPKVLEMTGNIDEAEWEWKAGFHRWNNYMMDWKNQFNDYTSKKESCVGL

In ChEMBL document CHEMBL1131001, “Syntheses and anticholinesterase activities of (3aS)-N1, N8-bisnorphenserine, (3aS)-N1,N8-bisnorphysostigmine, their antipodal isomers, and other potential metabolites of phenserine” (J Med Chem, 1998):

Tests used:
[1] = molecular target: Acetylcholinesterase (Homo sapiens, UniProt P22303); assay: Anticholinesterase activity against erythrocyte acetylcholinesterase (AChE) in humans.
[2] = molecular target: Cholinesterase (Homo sapiens, UniProt P06276); assay: Anticholinesterase activity against plasma Butyrylcholinesterase (BChE) in humans.; format: cell-free

Row | SMILES | IC50 [1] [nM] | IC50 [2] [nM]
1 | C[C@@]12CCNC1Nc1ccc(OC(=O)Nc3ccccc3)cc12 (some centres not stated) | 22.1 | 
2 | CNC(=O)Oc1ccc2c(c1)[C@]1(C)CCNC1N2C (some centres not stated) |  | 2
